Test results: US20220135628A1 (OXFORD UNIVERSITY INNOVATION, published 2022)

Biological target: SpyTag003-MBP
Experiment: SDS-PAGE with sfGFP fluorescence, pH 7.0, 25 C

Binder | Rate constant (second-order, isopeptide bond formation)
SpyCatcher-sfGFP (designed binder, not shown: super-folder GFP (sfGFP)) VDTLSGLSSEQGQSGDMTIEEDSATHIKFSKRDEDGKELAGATMELRDSSGKTISTWISDGQVKDFYLYPGKYTFVETAAPDGYEVATAITFTVNEQGQVTVNGKATKGDAHI | 39000 M⁻¹ s⁻¹
SpyCatcher002-sfGFP (designed binder, not shown: super-folder GFP (sfGFP)) VTTLSGLSGEQGPSGDMTTEEDSATHIKFSKRDEDGRELAGATMELRDSSGKTISTWISDGHVKDFYLYPGKYTFVETAAPDGYEVATAITFTVNEQGQVTVNGEATKGDAHT | 130000 M⁻¹ s⁻¹
